# Columns and labels:
# H460 cells [1] = experiment: alamarBlue cell viability assay; format: cell-based, human; conditions: H460, 72 h
# H460 cells [2] = experiment: Extracellular acidification (pH) assay; format: cell-based, human
# MDA-MB-231 cells = experiment: alamarBlue cell viability assay; format: cell-based, human; conditions: MDA-MB-231, 72 h
# HeLa cells = experiment: alamarBlue cell viability assay; format: cell-based, human; conditions: 72 h
# A549 cells = experiment: alamarBlue cell viability assay; format: cell-based, human; conditions: A549, 72 h
# AsPC-1 cells = experiment: alamarBlue cell viability assay; format: cell-based, human; conditions: AsPC-1, 48 h
# CA IX = biological target: T1, CA IX (Homo sapiens, UniProt Q16790); experiment: Fluorescent thermal shift assay (FTSA); format: binding; conditions: from FTSA Kds
# T1 construct: 12 recombinant catalytic domains of human active CA isoforms as determined by FTSA
# Method: The binding affinity of synthesized compounds to recombinant human CAs was measured by the fluorescent thermal shift assay (FTSA) where the thermal stabilization of the protein by the compound was determined by following the fluorescence dependence on temperature at various added compound concentrations. The melting temperature (Tm) of CA was measured using the Corbett Rotor-Gene 6000 instrument (QIAGEN Rotor-Gene Q, excitation at 365 ± 20 nm, emission detection at 460 ± 15 nm). The protein was heated from 25 to 99° C at a rate of 1° C/min and the fluorescence change of the solvatochromic dye 8-anilino-1-naphthalene sulfonate (ANS) was followed. The samples consisted of 5–10 μM CA, 0–200 μM ligand, 50 μM ANS, and 50 mM sodium phosphate buffer containing 100 mM NaCl at pH 7.0, with the final DMSO concentration of 2% (v/v). Protein unfolding profiles and the melting temperatures were determined at each ligand concentration while recording extrinsic fluorescence of ANS. Data analysis was performed as previously described. All experiments were repeated at least twice.
compound,measurement,setting,value
"NS(=O)(=O)c1c(F)c(F)c(SCCc2ccc(C(=O)O)cc2)c(F)c1NC1CCCCCCCCCCC1 [VR16-09, 4-(2-{[4-(Aminosulfonyl)-3-(cyclododecylamino)-2,5,6-tetrafluorophenyl]thio}ethyl)benzoic acid]",Cytotoxic ratio (CR) of selectivity to hypoxia,H460 cells [1],0.49 ± 0.04
same,"functional effect on reduction of hypoxia-induced acidification, relative to VR16-10",H460 cells [2],~ 3 fold
same,Cytotoxic ratio (CR) of selectivity to hypoxia,MDA-MB-231 cells,0.88 ± 0.03
same,Cytotoxic ratio (CR) of selectivity to hypoxia,HeLa cells,0.46 ± 0.06
same,Cytotoxic ratio (CR) of selectivity to hypoxia,A549 cells,0.22 ± 0.02
same,Cytotoxic ratio (CR) of selectivity to hypoxia,AsPC-1 cells,0.96 ± 0.12
same,selectivity for CA IX over CA I and CA II,CA IX,more than one million-fold

# Reference: article PMC6003569, “Novel fluorinated carbonic anhydrase IX inhibitors reduce hypoxia-induced acidification and clonogenic survival of cancer cells” (Oncotarget, 2018)
